Test results as given in ChEMBL document CHEMBL4196118, “Discovery of MK-8318, a Potent and Selective CRTh2 Receptor Antagonist for the Treatment of Asthma” (ACS Med Chem Lett, 2018).

What was measured:
[1] = biological target: T1, Prostaglandin D2 receptor 2 (Homo sapiens, UniProt Q9Y5Y4)
T1 sequence (Q9Y5Y4 whole entry): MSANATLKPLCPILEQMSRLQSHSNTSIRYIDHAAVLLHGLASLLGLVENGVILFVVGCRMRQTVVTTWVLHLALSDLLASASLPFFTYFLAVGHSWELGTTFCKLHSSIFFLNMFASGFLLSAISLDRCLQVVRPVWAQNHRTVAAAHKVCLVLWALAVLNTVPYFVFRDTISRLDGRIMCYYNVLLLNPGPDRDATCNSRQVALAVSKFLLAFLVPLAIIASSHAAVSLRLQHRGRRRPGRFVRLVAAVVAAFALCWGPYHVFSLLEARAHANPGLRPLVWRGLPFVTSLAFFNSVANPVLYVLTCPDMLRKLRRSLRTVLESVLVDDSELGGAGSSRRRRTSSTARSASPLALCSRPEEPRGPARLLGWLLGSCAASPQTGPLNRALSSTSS

[2] = biological target: T1, Prostaglandin D2 receptor 2; remark: listed apart in the source
[3] = biological target: T1, Prostaglandin D2 receptor 2; assay: biochemical

O=C(O)CCC(=O)N(C1CC1)[C@H]1c2ccccc2N(C(=O)c2ccc(OC(F)(F)F)cc2)[C@H]2CC[C@H]21
IC50 [1]: 7 nM
IC50 [2]: 24 nM

O=C(O)CCC(=O)N(C1CC1)[C@H]1c2cc(CO)ccc2N(C(=O)c2ccc(OC(F)(F)F)cc2)[C@H]2CCC[C@H]21
Ki [3]: 38 nM

O=C(O)CCC(=O)N(C1CC1)[C@H]1c2ccc(F)cc2N(C(=O)c2ccc(OC(F)(F)F)cc2)[C@H]2CCC[C@H]21
Ki [3]: 3 nM
